Values quoted from earlier work, collected in patent EP0936918B1, “COMBINATION THERAPY FOR TREATMENT OF ARTHRITIC DISEASES” (BRITISH BIOTECH PHARMACEUTICALS LIMITED, priority 1996, dated 1998).

Settings: results in animals, Hiestand et al. 1985; cited from earlier work

cyclosporin G
nephrotoxicity relative to CyA: less nephrotoxicity
